System: EpidermFT™ (MatTek) full thickness human skin equivalent tissues
Experiment: Transdermal flux/accumulation across EpidermFT full thickness human skin equivalents (Iso-Insulin ELISA of receptor fluid)
Assay type: in vitro ADME
Conditions: TopiconDM™
Protocol: Proof-of-concept ex vivo studies of transdermal delivery of long-acting insulin analogues by a poloxamer 188, propylene glycol and lauracopram formulation designated TopiconDM™ were performed using metabolically active full thickness human skin equivalent (HSE) inserts from EpidermFT™ (MatTek) grown on a semi-permeable membrane that allows test compounds to pass through the tissue and accumulate in the receptor fluid on the other side. It is important to note that the term TopiconDM™ is a trademark, is not descriptive of the subject formulation, and is merely an indication of the source of the subject formulation. Thus, the use of the term TopiconDM™ herein shall not be used to affect any trademark rights associated with the term TopiconDM™. […]
To determine the feasibility of creating a 7-day (weekly) TopiconDM™ insulin glargine patch, a protocol was developed in which the tissue inserts were incubated in tissue culture maintenance medium (with serum). […] It was empirically determined that 50 microliters of the formulations was sufficient to cover the entire surface of the tissue inserts when applied directly to the center. […] Plasma insulin and insulin analogue accumulation in mIU/cm^2 (reflecting transdermal delivery across 0.6 cm^2 tissue surface area) was quantified using the Iso-Insulin ELISA Kit (Mercodia AB, Uppsala, Sweden). […]

Q: With regular insulin as the substance, how does the flux dose-response (10-50 U/0.6 cm^2, 5-day study, preliminary) read?
A: clear dose-response

Q: What about the saturation of flux (up to 50 U/0.6 cm^2) of the same substance?
A: no saturation was observed at the highest dose

Reference: patent US20160045158A1, “DEVICES, SYSTEMS, AND METHODS FOR TRANSDERMAL DELIVERY OF COMPOUNDS” (PROMETHEON PHARMA, LLC, priority 2013, published 2016)
